For 63 molecules, inhibition results are on record in PubChem BioAssay AID485344 (National Center for Advancing Translational Sciences (NCATS), 2010).

Chains of the proteins cited; added tags and fusions are not shown.
UniProt P14416, whole entry: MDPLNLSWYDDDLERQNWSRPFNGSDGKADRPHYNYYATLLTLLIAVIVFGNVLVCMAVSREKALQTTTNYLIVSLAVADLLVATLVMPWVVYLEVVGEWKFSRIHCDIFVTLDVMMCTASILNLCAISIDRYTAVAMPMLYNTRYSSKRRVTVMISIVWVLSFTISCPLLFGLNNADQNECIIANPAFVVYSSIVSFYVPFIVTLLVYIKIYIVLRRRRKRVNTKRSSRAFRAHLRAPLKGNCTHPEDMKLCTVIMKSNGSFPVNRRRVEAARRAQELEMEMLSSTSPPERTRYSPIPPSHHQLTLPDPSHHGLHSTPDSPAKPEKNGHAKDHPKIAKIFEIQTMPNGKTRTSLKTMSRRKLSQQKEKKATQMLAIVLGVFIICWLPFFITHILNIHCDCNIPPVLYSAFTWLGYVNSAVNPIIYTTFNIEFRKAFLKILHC

Structures are written as SMILES. This is a selection; strong and weak results do not stand in their true shares. Some salts and complexes are drawn in separate pieces, as the source files them; their charges need not balance. The source made the active and inactive calls. Rule as the data show it: active = inhibition above about 30%; inactive = below that, where a call was filed.

For this experiment, the target named is D(2) dopamine receptor (Homo sapiens) (UniProt P14416). Nature of the experiment: HTS Assay for Allosteric Antagonists of the Human D2 Dopamine Receptor: Primary Screen for Antagonists. Also: 0% is about no effect. Particulars: HEK293 TREx D2 cells, calcium flux, dopamine EC80; at 10 µM; hits give high values. From the text:
NIH Chemical Genomics Center [NCGC] NIH Molecular Libraries Probe Centers Network [MLPCN] MLPCN Grant: NS064831-01 Assay Submitter (PI): David Sibley Dopamine receptors (DARs) are involved in the etiology and/or therapy of a number of neuropsychiatric and endocrine disorders. For instance, all receptor-based antiparkinsonian drugs work via stimulating the D2 DAR subtype whereas all FDA-approved antipsychotic agents are antagonists of this receptor. […] There are three different types of allosteric modulators that we are seeking, two of which will stimulate or augment receptor signaling, allosteric agonists and potentiators, while the third, allosteric antagonists, will attenuate receptor signaling. The present primary screening assay measures compound antagonism after an EC80 addition of dopamine by tracking calcium flux in a […], inducible Hek293 Trex D2 cell line.
Freshly passaged cells are plated in 1536 well black, clear bottom plates at a density of 4000 cells/well in 3 ul of complete media containing 1x tetracycline inducer. After an overnight incubation at 30 C in 5% CO2, cells are loaded with 2 ul of the no wash Calcium Assay Kit (ABD Bioquest) and incubated at room temperature for 30 to 90 minutes. Agonist read: A 10 cycle (1 second/cycle) baseline measurement is taken and then the FDSS online 1536 pintool delivers 23 nl of compound library (as well as dopamine controls) to the plate. The plate is measured for kinetically at 1 cycle/sec for 180 seconds. Following the 180 second read, 1 ul of an EC80 (negative modulation assay) is delivered by an onboard pipette head. Measurements are taken kinetically for an additional 180 seconds.
`CCOc1ncccc1C(=O)NCC1(N2CCOCC2)CCCCC1`: the inhibition was inactive: 5.54%. As for `CN1CCC(Nc2ccc(F)c(Cl)c2)CC1`, the figure is inactive: -2.54%.

For `CCCOc1ccc(C(=O)NCC2(N(C)C)CCCCC2)cc1`, the inhibition was inactive: 1.57%.

Regarding `CC(C)(C)OC(=O)N1CCC(Nc2ccccc2)CC1`, the inhibition is inactive: 3.7%. As for `O=C(O)C1(Nc2ccccc2)CCN(Cc2ccccc2)CC1`, the figure is inactive: 7.76%. `CCC(CO)(C(=O)OC1CN2CCC1CC2)c1ccccc1` (stereo not drawn): the inhibition is inactive: -4.21%. Then `COc1cccc(C(=O)N(c2cc(C)cc(C)c2)C2CCN(C(=O)OC(C)(C)C)CC2)c1`, with inactive: 5.08%; and `COc1cc(OC)cc(C(=O)NCC2(N3CCOCC3)CCCCC2)c1`, with inactive: -1.5%.

For the molecule `CCCOc1ccc(C)cc1CN(CCCl)CCCl`, the inhibition is inactive: -8.67%. As for `CN1CCC(Nc2ccc(Cl)cc2)CC1`, the figure is inactive: -5.75%.

Turning to `COc1cc(OC)cc(C(=O)NCC2(N3CCCCC3)CCCCC2)c1`, the inhibition is inactive: -0.0257%. Then `Cc1ccc(C(=O)NCC2(N3CCCCC3)CCCCC2)o1`, with inactive: 3.18%. Regarding `Fc1ccccc1NC1CCN(Cc2ccccc2)CC1`, the inhibition was inactive: -34.3%. Then `CCN1CCC(Nc2cccc(F)c2)CC1`, with inactive: -2.76%; and `O=C(NCC1(N2CCCCC2)CCCCC1)c1ccco1`, with inactive: -5.34%; and `N#Cc1ccc(C(=O)NCC2(N3CCCCC3)CCCCC2)cc1`, with inactive: -6.74%. Then `CCOC(=O)C(CC)C1=NC(C)(C)Cc2ccccc21.O=[N+]([O-])c1cc([N+](=O)[O-])c(O)c([N+](=O)[O-])c1` (stereo not drawn), with inactive: 2.19%. As to `c1ccc(CN2CCC(Nc3ccccc3)CC2)cc1`, the inhibition was inactive: -18%.

Regarding `CN(C)C1(CNC(=O)c2cccc(C#N)c2)CCCCC1`, the inhibition was inactive: 8.36%. Then `O=C(NCC1(N2CCOCC2)CCCCC1)c1cc(Br)ccc1Cl`, with inactive: -1.63%; and `N/C(=N\O)c1c(N)no[n+]1[O-]`, with inactive: 18.7%. As for `CCOC(=O)N1CCC(Nc2ccc(C)cc2)CC1`, the figure is inactive: 1.27%; as for `O=C(OC1CN2CCC1CC2)C1c2ccccc2C=Cc2ccccc21` (stereo not drawn), inactive: 6.8%. Then `O=C(O)c1cccc(Nc2c([N+](=O)[O-])cc([N+](=O)[O-])cc2[N+](=O)[O-])c1`, with inactive: 7.66%. On to `COc1ccc(CN(CCCl)CCCl)cc1Cl`, for which the inhibition was inactive: 5.67%. Then `CN(C)c1cccc(C(=O)NCC2(N3CCCCC3)CCCCC2)c1`, with inactive: 1.87%; and `O=[N+]([O-])c1cc([N+](=O)[O-])c(OC2CCCCC2O)c([N+](=O)[O-])c1` (stereo not drawn), with inactive: -2.59%. As for `CC(C)c1ccc(NC2CCN(C(=O)OC(C)(C)C)CC2)cc1`, the figure is inactive: -3.49%; as for `COc1cc(OC)c(C(=O)NCC2(N(C)C)CCCCC2)cc1OC`, inactive: -20.3%. For the molecule `COc1ccc2c(c1O)-c1c(O)c(OC)cc3c1[C@H](C2)[N+](C)(C)CC3.O=[N+]([O-])c1cc([N+](=O)[O-])c([O-])c([N+](=O)[O-])c1[O-]`, the inhibition was inactive: 21%. `O=C(OC1CN2CCC1CC2)c1ccc([N+](=O)[O-])cc1` (stereo not drawn): the inhibition was inactive: 9.35%. As for `CCCOc1ccc(C(=O)NCC2(N(C)C)CCCCC2)cc1OC`, the figure is inactive: 15.9%.

As to `O=C(NCC1(N2CCCCC2)CCCCC1)c1ccc(OC(F)F)cc1`, the inhibition is inactive: 20.9%. On to `CSc1ccc(C(=O)NCC2(N3CCOCC3)CCCCC2)cc1`, for which the inhibition was inactive: -12.4%. On to `O=C(NCC1(N2CCCCC2)CCCCC1)c1cccc([N+](=O)[O-])c1`, for which the inhibition was inactive: -15.3%. For `CCN1CCC(Nc2ccc(Cl)cc2)CC1`, the inhibition was inactive: -6.55%. In the case of `N#CC1(Nc2ccccc2)CCN(CCc2ccccc2)CC1`, the inhibition is inactive: 24.6%. Then `O=C(NCC1(N2CCCCC2)CCCCC1)c1cccc(C(F)(F)F)c1`, with inactive: -7.37%. For `O=[N+]([O-])c1cc([N+](=O)[O-])c(NCC2CCS(=O)(=O)C2)c([N+](=O)[O-])c1` (stereo not drawn), the inhibition was inactive: -1.13%.

As for `COc1ccc(NC2CCN(C(=O)OC(C)(C)C)CC2)cc1`, the inhibition was inactive: 10.3%. For `CC(C)c1ccc(C(=O)NCC2(N3CCOCC3)CCCCC2)cc1`, the inhibition is inactive: 3.29%. As for `CN1CCN(CCOC(=O)C(O)(c2ccccc2)c2ccccc2)CC1`, the figure is inactive: 1.68%.

Consider `O=C(NCC1(N2CCOCC2)CCCCC1)c1cc(=O)[nH]c2ccccc12`, for which the inhibition was inactive: -0.267%. With `COc1cc(C(=O)NCC2(N3CCCCC3)CCCCC2)ccc1OC(F)F`, the inhibition is inactive: 28.7%. `CCOc1ccc(C)cc1CN(CCCl)CCCl`: the inhibition was inactive: -0.585%. `O=C(NCC1(N2CCCCC2)CCCCC1)c1ccc(F)cc1`: the inhibition is inactive: 0.161%. As for `CCOC(=O)N1CCC(Nc2ccc(F)cc2)CC1`, the figure is inactive: 5.44%; as for `COc1ccc(NC2CCN(CCc3ccccc3)CC2)c(OC)c1`, inactive: 6.81%. Then `CCOC(=O)N1CCC(Nc2cccc(C)c2)CC1`, with inactive: 4.22%; and `Cc1ccc(OCC(C)C)c(CN(CCCl)CCCl)c1`, with inactive: 17.8%; and `O=C(NCC1(N2CCCCC2)CCCCC1)c1ccc(=O)[nH]c1`, with inactive: -0.0163%. As for `O=C(NCC1(N2CCCCC2)CCCCC1)c1cccs1`, the figure is inactive: 22.1%. For `COc1ccc(C(=O)NCC2(N3CCCCC3)CCCCC2)cc1`, the inhibition was inactive: -11.6%. As for `COc1ccc(C(=O)NCC2(N3CCCCC3)CCCCC2)c(OC)c1OC`, the figure is inactive: 1.39%; as for `CC(C)(C)OC(=O)N1CCC(N(C(=O)c2ccccc2)c2ccc(F)cc2)CC1`, inactive: 22.2%.

With `CSc1ccccc1C(=O)NCC1(N2CCCCC2)CCCCC1`, the inhibition is inactive: 12.2%. Take `O=C(NCC1(N2CCOCC2)CCCCC1)c1cc2ccccc2o1`: the inhibition was inactive: 7.52%. As for `O=C(NCC1(N2CCCCC2)CCCCC1)c1ccc(Cl)nc1`, the figure is inactive: -2.06%. As for `Cc1cc(C)cc(N(C(=O)c2ccccc2)C2CCN(C(=O)OC(C)(C)C)CC2)c1`, the figure is inactive: -3.99%. As for `CCOC(=O)N1CCC(Nc2ccc(OC)cc2)CC1`, the figure is inactive: -5.52%.

On to `N#CC1(Nc2ccccc2)CCN(Cc2ccccc2)CC1`, for which the inhibition is inactive: -6.14%. As for `O=C(OC1CN2CCC1CC2)C1c2ccccc2Oc2ccccc21` (stereo not drawn), the figure is inactive: -6.9%. Consider `COc1ccc(Cl)cc1C(=O)NCC1(N2CCOCC2)CCCCC1`, for which the inhibition is inactive: 0.325%.
